Drawing on PubChem BioAssay (EPA / NIEHS), this text covers outcome and AC50 for five molecules.

By UniProt entry, the sequences of proteins in these tests, tags left out.
UniProt P26367, whole entry: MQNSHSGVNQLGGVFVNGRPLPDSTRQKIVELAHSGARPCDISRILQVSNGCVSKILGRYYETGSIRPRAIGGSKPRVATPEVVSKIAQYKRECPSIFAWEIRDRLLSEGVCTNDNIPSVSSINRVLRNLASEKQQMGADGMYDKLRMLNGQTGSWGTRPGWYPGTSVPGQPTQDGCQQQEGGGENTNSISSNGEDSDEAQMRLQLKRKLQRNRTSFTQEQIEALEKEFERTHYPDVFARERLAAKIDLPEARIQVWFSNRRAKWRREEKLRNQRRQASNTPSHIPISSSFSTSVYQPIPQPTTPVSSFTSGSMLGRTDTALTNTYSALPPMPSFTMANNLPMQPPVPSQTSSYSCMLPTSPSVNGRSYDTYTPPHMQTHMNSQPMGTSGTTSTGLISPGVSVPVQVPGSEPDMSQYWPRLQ
UniProt P08047, whole entry: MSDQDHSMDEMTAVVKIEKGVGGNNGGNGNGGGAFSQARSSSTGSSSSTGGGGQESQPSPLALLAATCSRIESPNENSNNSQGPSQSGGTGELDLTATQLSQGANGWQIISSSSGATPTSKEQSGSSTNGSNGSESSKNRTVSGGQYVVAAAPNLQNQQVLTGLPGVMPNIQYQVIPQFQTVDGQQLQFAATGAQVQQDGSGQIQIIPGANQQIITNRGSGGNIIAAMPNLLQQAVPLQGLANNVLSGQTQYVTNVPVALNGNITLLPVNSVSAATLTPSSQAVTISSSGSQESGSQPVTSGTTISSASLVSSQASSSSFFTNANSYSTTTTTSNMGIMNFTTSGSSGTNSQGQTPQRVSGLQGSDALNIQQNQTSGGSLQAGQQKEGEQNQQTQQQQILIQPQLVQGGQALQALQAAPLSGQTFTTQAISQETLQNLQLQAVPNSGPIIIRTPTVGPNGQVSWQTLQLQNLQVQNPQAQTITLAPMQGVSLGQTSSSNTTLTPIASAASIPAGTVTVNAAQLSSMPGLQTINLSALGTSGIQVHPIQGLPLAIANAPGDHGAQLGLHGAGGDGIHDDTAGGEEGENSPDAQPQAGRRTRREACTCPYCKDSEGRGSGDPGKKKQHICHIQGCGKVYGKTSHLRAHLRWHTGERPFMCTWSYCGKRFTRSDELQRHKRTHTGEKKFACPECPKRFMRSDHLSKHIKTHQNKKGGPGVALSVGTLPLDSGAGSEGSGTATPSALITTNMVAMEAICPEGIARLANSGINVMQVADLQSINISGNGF
UniProt P40763, whole entry: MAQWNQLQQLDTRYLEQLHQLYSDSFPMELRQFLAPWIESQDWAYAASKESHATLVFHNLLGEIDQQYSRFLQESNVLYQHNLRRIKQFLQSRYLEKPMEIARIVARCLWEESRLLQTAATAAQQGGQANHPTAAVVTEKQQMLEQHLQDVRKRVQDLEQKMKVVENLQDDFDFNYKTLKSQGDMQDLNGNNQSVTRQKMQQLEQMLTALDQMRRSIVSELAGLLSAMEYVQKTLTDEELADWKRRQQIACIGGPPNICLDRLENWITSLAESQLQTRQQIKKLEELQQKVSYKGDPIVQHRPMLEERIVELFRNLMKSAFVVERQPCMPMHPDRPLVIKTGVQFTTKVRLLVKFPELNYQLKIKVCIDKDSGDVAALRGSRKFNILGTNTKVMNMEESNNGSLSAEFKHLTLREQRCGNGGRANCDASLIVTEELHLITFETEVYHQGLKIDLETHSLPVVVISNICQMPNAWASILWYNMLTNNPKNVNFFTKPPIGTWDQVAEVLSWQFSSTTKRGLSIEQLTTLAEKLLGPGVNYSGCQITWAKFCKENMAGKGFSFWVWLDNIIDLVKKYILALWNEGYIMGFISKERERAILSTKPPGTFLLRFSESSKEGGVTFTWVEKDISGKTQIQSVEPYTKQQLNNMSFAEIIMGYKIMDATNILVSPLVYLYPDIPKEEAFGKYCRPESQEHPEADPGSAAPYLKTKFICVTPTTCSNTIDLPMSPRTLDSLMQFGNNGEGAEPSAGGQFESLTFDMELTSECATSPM
UniProt P17861, whole entry: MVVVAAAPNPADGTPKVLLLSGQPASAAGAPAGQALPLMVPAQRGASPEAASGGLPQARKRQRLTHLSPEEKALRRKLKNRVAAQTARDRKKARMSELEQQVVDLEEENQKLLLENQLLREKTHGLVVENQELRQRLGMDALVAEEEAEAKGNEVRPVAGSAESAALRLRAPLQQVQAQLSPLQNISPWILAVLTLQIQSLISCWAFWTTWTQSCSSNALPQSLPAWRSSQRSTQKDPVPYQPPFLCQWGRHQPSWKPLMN
UniProt Q14994, whole entry: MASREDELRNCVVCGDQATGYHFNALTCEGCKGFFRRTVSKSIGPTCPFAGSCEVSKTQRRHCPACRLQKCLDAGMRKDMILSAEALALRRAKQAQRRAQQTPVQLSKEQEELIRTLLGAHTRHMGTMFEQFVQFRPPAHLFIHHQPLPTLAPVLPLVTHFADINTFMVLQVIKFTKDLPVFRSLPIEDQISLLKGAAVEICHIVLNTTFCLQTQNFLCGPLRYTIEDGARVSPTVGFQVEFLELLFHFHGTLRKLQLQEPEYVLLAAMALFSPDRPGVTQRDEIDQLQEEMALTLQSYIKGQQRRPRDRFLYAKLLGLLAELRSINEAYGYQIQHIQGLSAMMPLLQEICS
UniProt P03372, whole entry: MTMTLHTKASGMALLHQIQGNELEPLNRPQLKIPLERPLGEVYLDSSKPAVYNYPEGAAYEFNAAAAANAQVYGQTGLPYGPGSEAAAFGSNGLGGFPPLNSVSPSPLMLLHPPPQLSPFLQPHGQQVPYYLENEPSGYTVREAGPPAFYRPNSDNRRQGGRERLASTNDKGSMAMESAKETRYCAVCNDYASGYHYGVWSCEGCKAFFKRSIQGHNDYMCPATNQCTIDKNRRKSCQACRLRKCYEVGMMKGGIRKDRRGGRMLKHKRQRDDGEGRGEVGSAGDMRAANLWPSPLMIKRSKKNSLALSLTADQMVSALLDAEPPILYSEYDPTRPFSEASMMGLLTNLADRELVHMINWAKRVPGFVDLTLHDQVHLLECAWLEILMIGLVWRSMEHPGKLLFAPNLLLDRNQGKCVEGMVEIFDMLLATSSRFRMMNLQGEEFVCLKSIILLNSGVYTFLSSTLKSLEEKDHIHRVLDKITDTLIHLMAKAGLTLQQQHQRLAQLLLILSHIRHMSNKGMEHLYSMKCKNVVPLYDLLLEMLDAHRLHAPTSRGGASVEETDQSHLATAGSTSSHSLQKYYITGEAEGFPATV
UniProt P10275, whole entry: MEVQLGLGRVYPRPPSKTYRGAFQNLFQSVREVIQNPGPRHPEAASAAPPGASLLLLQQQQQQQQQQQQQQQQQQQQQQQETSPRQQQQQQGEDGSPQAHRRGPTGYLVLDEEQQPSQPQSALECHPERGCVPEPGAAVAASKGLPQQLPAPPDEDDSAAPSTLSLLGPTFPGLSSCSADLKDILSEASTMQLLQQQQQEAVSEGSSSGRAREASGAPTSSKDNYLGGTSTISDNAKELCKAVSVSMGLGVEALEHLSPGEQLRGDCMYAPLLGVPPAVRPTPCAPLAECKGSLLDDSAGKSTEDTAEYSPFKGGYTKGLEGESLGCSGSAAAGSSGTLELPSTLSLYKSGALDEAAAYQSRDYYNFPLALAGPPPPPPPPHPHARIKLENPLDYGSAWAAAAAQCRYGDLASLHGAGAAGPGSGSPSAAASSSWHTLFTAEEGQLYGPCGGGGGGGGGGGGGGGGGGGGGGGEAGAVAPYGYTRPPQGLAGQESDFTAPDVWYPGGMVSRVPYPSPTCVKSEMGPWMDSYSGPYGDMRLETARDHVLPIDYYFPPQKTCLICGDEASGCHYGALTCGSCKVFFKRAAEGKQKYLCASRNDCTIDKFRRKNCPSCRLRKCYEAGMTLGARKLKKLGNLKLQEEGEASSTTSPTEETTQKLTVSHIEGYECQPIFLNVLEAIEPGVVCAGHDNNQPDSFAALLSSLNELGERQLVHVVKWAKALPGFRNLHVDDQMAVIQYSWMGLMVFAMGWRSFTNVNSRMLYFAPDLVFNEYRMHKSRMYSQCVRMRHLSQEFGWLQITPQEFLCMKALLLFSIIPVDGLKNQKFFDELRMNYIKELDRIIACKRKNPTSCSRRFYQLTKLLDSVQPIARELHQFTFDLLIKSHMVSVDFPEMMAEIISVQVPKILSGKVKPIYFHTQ
UniProt P11474, whole entry: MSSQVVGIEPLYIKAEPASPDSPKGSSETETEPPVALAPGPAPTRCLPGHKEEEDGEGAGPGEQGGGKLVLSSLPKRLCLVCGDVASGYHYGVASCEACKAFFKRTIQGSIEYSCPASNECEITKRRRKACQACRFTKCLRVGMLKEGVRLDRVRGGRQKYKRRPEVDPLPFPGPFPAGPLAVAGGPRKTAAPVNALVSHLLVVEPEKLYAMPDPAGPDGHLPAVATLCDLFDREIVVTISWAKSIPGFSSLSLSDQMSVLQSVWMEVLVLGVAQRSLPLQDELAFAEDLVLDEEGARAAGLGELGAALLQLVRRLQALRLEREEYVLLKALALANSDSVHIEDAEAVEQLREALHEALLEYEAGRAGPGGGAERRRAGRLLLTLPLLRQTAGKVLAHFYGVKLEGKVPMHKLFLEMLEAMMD

Assay [1] can be described thus: ATG_PBREM_CIS: Attagene CIS-FACTORIAL HepG2 Assay for human Phenobarbital-responsive Enhancer Module (PBREM) (AID 2282955). Conditions: HepG2 PBREM cis-reporter, Attagene multiplexed transcription; actives raise or lower the signal. Summed up: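 HepG2, transient MRTU transfection, 24 h dosing; RNA → oligo(dT) RT → PCR → 6-FAM extension → HpaI → CE. Bidirectional fit vs DMSO.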

Assay [2] has as its target Paired box protein Pax-6 (Homo sapiens) (UniProt P26367). The experiment in a line: ATG_Pax6_CIS: Attagene CIS-FACTORIAL HepG2 Assay for human Paired Box 6 (PAX6) (AID 2282956). As to conditions: HepG2 CIS-FACTORIAL PAX6 reporter transcription, RNA readout; actives raise or lower the signal. Summed up:
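HepG2 cells transiently transfected with multiplexed cis-promoter reporter units (endogenous TF activity) were dosed for 24 h. Reporter mRNA was quantified by RT-PCR, 6-FAM labeling, HpaI digestion and capillary electrophoresis; bidirectional fitting versus DMSO baseline.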

Assay [3] is described as follows: ATG_PXRE_CIS: Attagene CIS-FACTORIAL HepG2 Assay for human Pregnane X Receptor Element (PXRE) (AID 2282957). Conditions: HepG2 Attagene CIS-FACTORIAL PXRE reporter, mRNA; actives raise or lower the signal. Put shortly:
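HepG2 cells transiently transfected with cis-regulated multiple reporter transcription units; endogenous factor activity measured as reporter mRNA 24 h after dosing. RT-PCR, fluorescent primer extension, HpaI digestion, capillary electrophoresis; bidirectional fit versus DMSO baseline.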

A short description of assay [4]: ATG_PPRE_CIS: Attagene CIS-FACTORIAL HepG2 Assay for human Peroxisome Proliferator-activated Response Element (PPRE) (AID 2282958). As to conditions: HepG2 PPRE cis-element reporter, Attagene transcription factor profiling; actives raise or lower the signal. Summed up: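 Transcript-level reporter induction in transfected HepG2 cells after 24 h chemical exposure, quantified by fluorescence from RT-PCR products separated by capillary electrophoresis.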

A short description of assay [5]: ATG_RORE_CIS: Attagene CIS-FACTORIAL HepG2 Assay for human RAR-related Orphan Receptor Element (RORE) (AID 2282959). As to conditions: HepG2 Attagene cis-factorial RORE reporter, mRNA; actives raise or lower the signal. Put shortly:
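Multiplexed reporter assay measuring mRNA induction from a cis promoter element in transiently transfected HepG2 cells after 24 h treatment. Detection via RT-PCR and capillary electrophoresis fluorescence; DMSO serves as baseline.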

Assay [6] can be described thus: ATG_Sox_CIS: Attagene CIS-FACTORIAL HepG2 Assay for human SRY-box transcription factor (SOX) (AID 2282960). Conditions: HepG2 Attagene cis-factorial SOX reporter, mRNA; actives raise or lower the signal. Put shortly:
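Cells were transfected with reporter constructs under cis-regulatory promoters, then exposed to chemicals for 24 h. Reporter transcripts were quantified by fluorescence after RT-PCR and capillary electrophoresis; activity was fitted in both directions against DMSO.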

Assay [7] deals with Transcription factor Sp1 (Homo sapiens) (UniProt P08047). The experiment in a line: ATG_Sp1_CIS: Attagene CIS-FACTORIAL HepG2 Assay for human Specificity Protein 1 (Sp1) (AID 2282961). As to conditions: HepG2 Sp1 cis-reporter transcription, actives raise or lower the signal. Put shortly:
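Measures mRNA induction of an Sp1-linked reporter in HepG2 cells 24 h post-dosing. Multiplexed reporters read by RT-PCR and capillary electrophoresis; DMSO serves as negative control and baseline.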

A short description of assay [8]: ATG_SREBP_CIS: Attagene CIS-FACTORIAL HepG2 Assay for human Sterol Regulatory Element Binding (SREBP) (AID 2282962). As to conditions: HepG2 Attagene cis-factorial SREBP reporter, mRNA; actives raise or lower the signal. Summed up:
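HepG2 cells transiently transfected with multiplexed cis-element reporter units report endogenous transcription factor activity. After 24 h of chemical exposure, reporter mRNA was quantified by RT-PCR, 6-FAM labelling, HpaI digestion and capillary electrophoresis; bidirectional fits used DMSO as baseline.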

Assay [9] addresses Signal transducer and activator of transcription 3 (Homo sapiens) (UniProt P40763). Put plainly: ATG_STAT3_CIS: Attagene CIS-FACTORIAL HepG2 Assay for human Signal Transducer and Activator of Transcription 3 (STAT3) (AID 2282963). Conditions: HepG2, Attagene cis-factorial STAT3 reporter transcription; actives raise or lower the signal. Put shortly:
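After a 24 h compound incubation, total RNA from MRTU-transfected HepG2 cells was converted to cDNA and reporter sequences PCR-amplified, labelled and profiled by capillary electrophoresis. Gain and loss of signal were referenced to DMSO.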

A short description of assay [10]: ATG_TA_CIS: Attagene CIS-FACTORIAL HepG2 Assay for human TA Basal Promoter (AID 2282964). Conditions: HepG2 Attagene CIS-factorial TA basal promoter reporter; actives raise or lower the signal. Summed up:
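HepG2 cells transiently transfected with multiple reporter units under cis promoter elements, reporting endogenous transcription factor activity; this endpoint tracks the TA basal promoter as background control. Reporter mRNA after 24 h dosing measured by RT-PCR/capillary electrophoresis; bidirectional fits versus DMSO.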

Assay [11] in a line: ATG_TCF_b_cat_CIS: Attagene CIS-FACTORIAL HepG2 Assay for human T-Cell-Factor with beta-catenin (TCF/b-cat) (AID 2282965). As to conditions: HepG2 TCF/beta-catenin cis-reporter transcription, actives raise or lower the signal. Summed up: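 Endogenous transcription factor activity is captured through cis-promoter reporter constructs transiently introduced into human HepG2 liver cells. Induced reporter mRNA is measured after 24 h and fitted bidirectionally relative to DMSO.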

A short description of assay [12]: ATG_TAL_CIS: Attagene CIS-FACTORIAL HepG2 Assay for human TAL Basal Promoter (AID 2282966).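 Further: background control endpoint measuring basal TAL promoter reporter mRNA not a specific factor.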 Conditions: HepG2 Attagene cis-factorial TAL promoter reporter; actives raise or lower the signal. Put shortly:
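HepG2 cells were transiently transfected with promoter-driven multiplexed reporter units and dosed for 24 h. Reporter mRNA was measured by RT-PCR with capillary electrophoresis fluorescence; bidirectional fits used DMSO as baseline, serving as a background control.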

Assay [13] in a line: ATG_TGFb_CIS: Attagene CIS-FACTORIAL HepG2 Assay for human Transforming Growth Factor (TGF) (AID 2282967). As to conditions: HepG2 Attagene CIS TGFb reporter, mRNA transcription; actives raise or lower the signal. Put shortly:
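HepG2 cells transiently transfected with cis-promoter-driven multiple reporter units measure endogenous TF activity; reporter mRNA quantified at 24 h by RT-PCR, FAM labeling, HpaI digestion and capillary electrophoresis. Bidirectional fit vs DMSO.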

Assay [14] is described as follows: ATG_VDRE_CIS: Attagene CIS-FACTORIAL HepG2 Assay for human Vitamin D Receptor Element (VDRE) (AID 2282968). Conditions: HepG2 VDRE cis-reporter transcription, actives raise or lower the signal. Summed up: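 In transiently transfected HepG2 liver cells, gain or loss of reporter mRNA after 24 h exposure is scored relative to DMSO, using fluorescence detection by capillary electrophoresis of RT-PCR products.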

For assay [15], the target named is X-box-binding protein 1 (Homo sapiens) (UniProt P17861). The experiment in a line: ATG_Xbp1_CIS: Attagene CIS-FACTORIAL HepG2 Assay for human X-box Binding Protein 1 (XBP1) (AID 2282972). Conditions: HepG2 XBP1 cis-element reporter, Attagene multiplex; actives raise or lower the signal. Put shortly: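 HepG2 cells transiently transfected with cis-regulated multiple reporter transcription units; endogenous transcription factor activity measured 24 hours after chemical dosing. Reporter mRNA quantified by RT-PCR, 6-FAM primer extension, HpaI digestion and capillary electrophoresis; bidirectional fitting versus DMSO.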

Assay [16] deals with Nuclear receptor subfamily 1 group I member 3 (Homo sapiens) (UniProt Q14994). Put plainly: ATG_CAR_TRANS: Attagene TRANS-FACTORIAL HepG2 Assay for human Constitutive Androstane Receptor (CAR) (AID 2282969; active means hit-call score of the fitted dose curve at least 0.9, where 1 is the maximum;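 further: activators raise reporter mRNA above DMSO so AC50 marks induction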). Conditions: HepG2 Attagene TRANS-FACTORIAL CAR reporter. Put shortly: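 Readout is reporter mRNA induction, quantified by fluorescent primer extension and capillary electrophoresis after RT-PCR. Cells were HepG2 transiently carrying chimeric NR-Gal4 constructs with GAL4-UAS reporters, treated for 24 h; activity scored upward from DMSO.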

Assay [17] in a line: ATG_M_19_TRANS: Attagene TRANS-FACTORIAL HepG2 Assay for M19 Transcription Factor (Internal Marker) (AID 2282974; active means hit-call score of the fitted dose curve at least 0.9, where 1 is the maximum). Conditions: HepG2 Attagene TRANS-FACTORIAL M19 internal marker reporter. Summed up: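 After transfection of HepG2 with GAL4-UAS-driven reporter constructs, cells are dosed for 24 h. Total RNA is reverse-transcribed, reporter sequences PCR-amplified and labelled, then HpaI-digested and sized by capillary electrophoresis.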

The target in assay [18] is Estrogen receptor (Homo sapiens) (UniProt P03372). Put plainly: ATG_ERa_TRANS: Attagene TRANS-FACTORIAL HepG2 Assay for human Estrogen Receptor alpha (ERa) (AID 2282970; active means hit-call score of the fitted dose curve at least 0.9, where 1 is the maximum). Conditions: HepG2 Attagene TRANS ERa GAL4 reporter, mRNA. Put shortly:
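HepG2 cells transiently transfected with multiplexed GAL4-UAS reporter units; ERa activity read via exogenous chimeric NR-Gal4 protein. After 24 hour compound exposure, reporter mRNA measured by RT-PCR with 6-FAM labelling and capillary electrophoresis; gain-of-signal fitted relative to DMSO.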

Assay [19] addresses Androgen receptor (Homo sapiens) (UniProt P10275). Put plainly: ATG_AR_TRANS: Attagene TRANS-FACTORIAL HepG2 Assay for human Androgen Receptor (AR) (AID 2282973; active means hit-call score of the fitted dose curve at least 0.9, where 1 is the maximum). Conditions: HepG2 Attagene TRANS-FACTORIAL AR reporter transcription. Summed up:
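HepG2 cells transiently transfected with multiplexed GAL4-UAS reporter units and chimeric NR-Gal4 fusion; 24 h compound exposure. Reporter mRNA measured by RT-PCR, 6-FAM labelling, HpaI digestion and capillary electrophoresis; gain-of-signal fitted relative to DMSO baseline.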

Assay [20] has as its target Steroid hormone receptor ERR1 (Homo sapiens) (UniProt P11474). Put plainly: ATG_ERRa_TRANS: Attagene TRANS-FACTORIAL HepG2 Assay for human Estrogen-Related Receptor alpha (ERRa) (AID 2282971; active means hit-call score of the fitted dose curve at least 0.9, where 1 is the maximum). Conditions: HepG2 Attagene TRANS reporter, ERRa transactivation. Summed up:
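HepG2 cells transiently transfected with multiplexed GAL4-UAS reporter units reading chimeric ERRa-Gal4 activity; 24 h compound exposure. Reporter mRNA measured by RT-PCR, 6-FAM labelling, HpaI digest and capillary electrophoresis; gain of signal fitted versus DMSO baseline.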

This is a selection; strong and weak results do not stand in their true shares. Records with an inconclusive call do not appear. Calls of active or inactive are those of the source. How the source made its calls, unless noted: active means hit-call score of the fitted dose curve at least 0.9, where 1 is the maximum; inactive means score below 0.9.

`CCOP(=O)(Cl)Cl`: the outcome in [1], in assay [2], in [3], in assay [4], in [5] and in assay [6] was inactive. Besides, the result in assay [7], in assay [8], in assay [9], in [10], in assay [11] and in assay [12] was inactive. Moreover, the call in [13], in assay [14] and in assay [15] was inactive.
Regarding `ClCCOP(OCCCl)OCCCl`, the result in [1], in assay [2], in assay [3], in [4], in [5] and in [6] was inactive. In addition, the call in assay [7], in assay [8], in [9], in assay [10], in assay [11] and in assay [12] was inactive. Also, the call in assay [13], in assay [14], in [16], in assay [15] and in assay [17] was inactive.
As for `ClCCNCCCl`, the outcome in [1], in assay [2], in assay [4], in assay [5], in assay [6] and in assay [7] was inactive. The outcome in assay [8], in assay [9], in [10], in assay [11], in assay [12] and in assay [13] was inactive. The result in [14], in [18], in assay [15] and in assay [19] was inactive. The AC50 in [3] is active: 27 µM.
Regarding `O=[N+]([O-])c1ccccc1[N+](=O)[O-]`, the result in assay [1], in assay [2], in assay [3], in assay [4], in assay [5] and in assay [6] was inactive. For the same molecule, the result in assay [7], in assay [8], in assay [9], in assay [10], in [11] and in assay [12] was inactive. The molecule was called inactive in assay [13], in assay [14], in assay [20], in assay [15] and in assay [17].
With `CC(C)OP(OC(C)C)OC(C)C`, the result in [1], in assay [2], in assay [4], in assay [5], in assay [6] and in [7] was inactive. The result in [8], in [9], in assay [10], in assay [11], in assay [12] and in assay [13] was inactive. For the same molecule, the molecule was classed as inactive in assay [14], in assay [16], in assay [15], in [19] and in assay [17]. For the same molecule, the AC50 in [3] was active: 44.6 µM.

Usually AC50 stands for the concentration at which the activity in the assay is half-maximal.
